Experimental findings from publication PMC7617104 (Biochemical Journal, 2024) are described below.

By UniProt entry, the sequences of proteins in these tests, tags left out. Where a name states a change or a piece, a line headed by the entry shows the natural chain unless it says otherwise.
UniProt P42336, whole entry: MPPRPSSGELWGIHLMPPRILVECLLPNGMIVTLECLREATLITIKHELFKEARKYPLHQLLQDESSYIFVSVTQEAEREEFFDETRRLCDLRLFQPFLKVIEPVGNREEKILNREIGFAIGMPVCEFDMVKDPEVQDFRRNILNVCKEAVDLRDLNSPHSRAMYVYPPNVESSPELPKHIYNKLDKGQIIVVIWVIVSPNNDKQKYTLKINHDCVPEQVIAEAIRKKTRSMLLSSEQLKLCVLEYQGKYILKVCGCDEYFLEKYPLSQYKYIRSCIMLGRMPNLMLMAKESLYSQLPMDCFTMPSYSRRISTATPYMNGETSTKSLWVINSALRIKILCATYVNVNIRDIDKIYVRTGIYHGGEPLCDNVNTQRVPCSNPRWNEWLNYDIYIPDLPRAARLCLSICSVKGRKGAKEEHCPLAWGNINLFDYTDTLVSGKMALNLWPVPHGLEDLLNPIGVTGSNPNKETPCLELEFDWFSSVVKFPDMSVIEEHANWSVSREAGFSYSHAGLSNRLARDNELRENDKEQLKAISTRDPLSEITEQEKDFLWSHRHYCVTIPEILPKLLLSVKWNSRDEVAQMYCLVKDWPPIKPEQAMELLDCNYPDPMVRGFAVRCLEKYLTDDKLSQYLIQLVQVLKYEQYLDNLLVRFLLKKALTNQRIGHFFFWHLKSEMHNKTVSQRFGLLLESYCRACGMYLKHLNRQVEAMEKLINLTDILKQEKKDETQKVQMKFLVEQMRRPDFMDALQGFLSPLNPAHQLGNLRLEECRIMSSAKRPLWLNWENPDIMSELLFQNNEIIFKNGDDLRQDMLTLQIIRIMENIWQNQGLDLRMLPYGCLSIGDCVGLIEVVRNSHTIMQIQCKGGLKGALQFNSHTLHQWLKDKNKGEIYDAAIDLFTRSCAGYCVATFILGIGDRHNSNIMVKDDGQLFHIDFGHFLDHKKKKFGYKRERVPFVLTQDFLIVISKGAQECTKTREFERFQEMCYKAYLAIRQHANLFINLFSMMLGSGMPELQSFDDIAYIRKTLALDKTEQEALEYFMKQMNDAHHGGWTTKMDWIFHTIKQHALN
UniProt O00329, whole entry, species assumed: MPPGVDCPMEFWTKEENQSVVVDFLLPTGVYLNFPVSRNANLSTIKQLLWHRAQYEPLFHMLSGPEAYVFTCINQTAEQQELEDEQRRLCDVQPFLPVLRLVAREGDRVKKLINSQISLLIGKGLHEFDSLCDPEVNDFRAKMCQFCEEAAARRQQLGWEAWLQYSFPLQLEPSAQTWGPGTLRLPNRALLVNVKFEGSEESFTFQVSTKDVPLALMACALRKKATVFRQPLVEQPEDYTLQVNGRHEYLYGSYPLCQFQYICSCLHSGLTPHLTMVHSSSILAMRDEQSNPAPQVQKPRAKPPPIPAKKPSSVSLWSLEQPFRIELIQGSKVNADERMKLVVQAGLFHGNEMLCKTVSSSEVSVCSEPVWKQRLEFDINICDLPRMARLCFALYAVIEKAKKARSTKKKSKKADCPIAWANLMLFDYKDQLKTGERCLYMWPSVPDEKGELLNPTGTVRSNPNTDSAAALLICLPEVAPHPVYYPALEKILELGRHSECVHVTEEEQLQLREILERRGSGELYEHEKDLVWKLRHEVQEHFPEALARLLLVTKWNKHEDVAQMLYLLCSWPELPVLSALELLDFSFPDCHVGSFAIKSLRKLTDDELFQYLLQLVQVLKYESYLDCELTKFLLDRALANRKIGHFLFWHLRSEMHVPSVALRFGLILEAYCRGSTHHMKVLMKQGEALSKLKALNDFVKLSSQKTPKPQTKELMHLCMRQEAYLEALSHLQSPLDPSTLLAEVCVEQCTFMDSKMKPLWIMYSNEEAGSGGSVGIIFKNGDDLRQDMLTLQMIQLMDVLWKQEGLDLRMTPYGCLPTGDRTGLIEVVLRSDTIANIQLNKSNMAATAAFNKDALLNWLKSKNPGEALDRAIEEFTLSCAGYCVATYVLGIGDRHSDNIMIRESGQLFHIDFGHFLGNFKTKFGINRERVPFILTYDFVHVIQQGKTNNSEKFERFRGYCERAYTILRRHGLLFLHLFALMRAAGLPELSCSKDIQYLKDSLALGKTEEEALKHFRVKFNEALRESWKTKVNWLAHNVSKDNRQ

One experiment deals with T1, PI3Kα^WT (p110α/p85α) (Homo sapiens, UniProt P42336).
T1 construct: made in house; host or cells: Sf9 insect cells (baculovirus)
Description: PI3K homogenous time-resolved fluorescence (HTRF) lipid kinase IC50 determination. It counts as biochemical. Particulars: Table S1, this study; a = N=2 individual data shown, b = N=1. The method, then:
(§1) IC50 values were determined using the PI3K homogenous time-resolved fluorescence assay (Merck Millipore, #33-016) following the manufacturer's instructions as previously described. […] Data was graphed and analysed with Graphpad Prism 6, nonlinear regression with log(inhibitor) vs. response and constraints set at 0% and 100%.
(§2) (1 picture or pasted object on this page, not shown here)
(§3) Enzymes were used at PI3KαWT 40 ng/ml, PI3KβWT as either 400 ng/ml or 300 ng/ml,
(§4) and PI3K δWT was 65 ng/ml. Plates were read on a PHERAStar HTS microplate reader
Background: In TR-FRET formats the signal depends on donor and acceptor labels being close together.

The target of a further experiment is T2, PI3Kδ^WT (p110δ/p85α) (Homo sapiens, UniProt O00329).
T2 construct: made in house; host or cells: Sf9 insect cells (baculovirus)
Description: PI3K HTRF lipid kinase IC50 determination. It counts as biochemical. As to conditions: Table S1, this study; a = N=2 individual data shown. The method, then:
as §1, §2, §3, §4

What is called IC50 is the midpoint of a concentration-inhibition curve. A lower IC50 goes with higher potency.

“And” between values parts separate entries of the source, which are not always exact repeats. Equal values may be shown once.

For the molecule `Cc1nc(-c2cn3c(n2)-c2ccc(-c4cnn(C(C)(C)C(N)=O)c4)cc2OCC3)n(C(C)C)n1` [GDC0032], the IC50 at PI3Kα^WT (p110α/p85α) is 0.7 nM and 1.3 nM; against PI3Kδ^WT (p110δ/p85α), 0.7 nM and 1.1 nM.
